{"source": "paper PMC9865020", "about": "“Identification of Novel Small Molecule Ligands for JAK2 Pseudokinase Domain” (Pharmaceuticals, 2023)", "biological_target": "T1, JAK3 JH2 (Homo sapiens, UniProt P52333)", "T1 sequence (P52333 511-790)": "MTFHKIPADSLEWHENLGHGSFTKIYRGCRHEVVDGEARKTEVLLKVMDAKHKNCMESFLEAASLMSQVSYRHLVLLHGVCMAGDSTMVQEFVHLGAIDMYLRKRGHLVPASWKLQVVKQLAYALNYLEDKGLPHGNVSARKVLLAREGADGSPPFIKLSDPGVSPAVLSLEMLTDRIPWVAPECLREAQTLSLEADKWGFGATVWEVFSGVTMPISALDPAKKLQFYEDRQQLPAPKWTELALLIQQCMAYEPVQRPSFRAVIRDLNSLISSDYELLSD", "test": "More sensitive FP binding assay, Bodipy FL-labeled JNJ-7706621 tracer", "data": [{"smiles": "c1nc2nc(Nc3ccc(N4CCOCC4)cc3)nc(NC3CCCCC3)c2[nH]1", "note": "[Compound 7, Reversine, reference compound]", "values": [{"measurement": "IC50", "value": 4.7, "unit": "µM"}]}]}
